# Test results as given in PubChem BioAssay AID651674 (The Scripps Research Institute Molecular Screening Center, 2012).
# The chains behind the UniProt entries cited, without tags or fusion partners.
# UniProt P41235, whole entry: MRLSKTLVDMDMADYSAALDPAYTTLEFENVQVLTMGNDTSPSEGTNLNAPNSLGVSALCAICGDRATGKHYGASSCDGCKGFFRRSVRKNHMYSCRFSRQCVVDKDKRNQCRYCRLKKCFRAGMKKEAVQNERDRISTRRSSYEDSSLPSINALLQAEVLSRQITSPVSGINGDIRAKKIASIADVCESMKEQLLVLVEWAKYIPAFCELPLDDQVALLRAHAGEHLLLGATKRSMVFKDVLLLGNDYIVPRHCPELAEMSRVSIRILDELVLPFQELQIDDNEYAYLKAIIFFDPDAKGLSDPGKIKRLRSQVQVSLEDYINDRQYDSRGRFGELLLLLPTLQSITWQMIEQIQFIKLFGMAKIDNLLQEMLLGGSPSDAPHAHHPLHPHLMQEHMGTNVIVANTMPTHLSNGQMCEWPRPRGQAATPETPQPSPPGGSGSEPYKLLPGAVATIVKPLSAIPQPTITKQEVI
# The entries are a selection whose mix differs from that of the whole data set. Active and inactive are the calls of the source.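 Rule for the calls: active = mean inhibition across replicate wells exceeding the computed hit threshold (cut at about 13% in these data); inactive = the rest.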
# Target: Hepatocyte nuclear factor 4-alpha (Homo sapiens) (UniProt P41235)
# Assay: HNF4 dimerization inhibitors, counter-screen for ABHD5-PLIN5 interaction inhibitor project, biochemical, split-luciferase complementation, luminescence (AID 651674);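 note: light from luciferase halves that rejoin when HNF4 fusion proteins dimerize; 0% = DMSO only wells and the 100% control is not given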
# Conditions: at 4 µM, active compounds read high
row,Compound,inhibition
1,CCC(=O)N(c1ccccc1)C1(COC)CCN(CCc2cccs2)CC1,active: 30.4%
